For test [1], the system named is UM-UC-9 engineered cells. Description: Cell proliferation / short-term viability assay, CellTiter-Glo 144 h. The conditions noted are these: read-out: CTGlo 144 h UMUC9.5, G150. As for the experimental part: Cell Seeding for Proliferation Assay
UM-UC-9 engineered cells were cultured in Dulbecco's Modified Eagle Medium (DMEM) supplemented with 10% FBS, 25 mM glucose (high glucose), 4.0 mM L-glutamine, 2.0 mM GlutaMAX™, 1.0 mM pyruvate, 1.0% non-essential amino acids (NEAA) in a 95% humidified incubator at 37° C. with 5% CO2. Cell banks of UM-UC-9 engineered assay-ready cells (ARCs) were prepared from a very active growth stage. Vials of ARCs containing approximately 5×10^6 cells per vial were stored in liquid nitrogen vapor phase cryostorage until use.
For making assay plates, ARCs were recovered from cryostorage, strained in a […] cell strainer, verified for cell viability >90% and counted using a cell counter (Cellometer Auto 1000, Nexelom). Each cell line was seeded into 384-well plates (50 μl/well) using DMEM medium at a density previously determined to be in log growth phase 7 days post-seeding (500 cells/well) using a bulk reagent dispenser (Multidrop™ Combi, Thermo Scientific) with a large-bore plastic-tip cassette pre-sanitized with 70% ethanol. One plate of cells was designated as the pretreatment time-zero (T0) control. Freshly seeded plates were allowed to sit lidded for 30 minutes within a biosafety cabinet for cells to settle distributed within the plate wells uniformly and then placed into an automated incubator (STX110, Liconic) at 37° C., 5% CO2, and 95% relative humidity.
Preparation of Test Compound in Assay-Ready Plate
Compounds were stored in a low-temperature sample archive as 10 mM dimethyl sulfoxide (DMSO) solutions at −20° C. under reduced humidity (−45° C. dew point) and protected from light. All samples in the automated archive are stored in 2D barcoded polypropylene tubes, tracked through a laboratory information management system (LIMS), and have been verified for identity and purity by NMR (Chemistry, H3 Biomedicine) and by LCMS (Analytical Chemistry, H3 Biomedicine) at the time of sample registration. Identity by mass matching and purity are again verified at the time of sample request fulfillment by redundant LCMS methods (acidic and basic separation protocols; Analytical Chemistry, H3 Biomedicine). Samples retrieved from low-temperature archive storage were solubilized by heated sonication (Bransonic® Ultrasonic Bath, Branson), transferred (Microlab Starlet, Hamilton) and serially-diluted (Viaflo Assist, Integra) by low-volume liquid handlers, and tracked in LIMS by automation log files to create a ID barcoded master dose-response plate (MDR) to serve as a standard source for all assay-ready plates (ARP) used within an experiment. ARPs prepared by acoustic transfer (ATS-100, EDC) of nL volumes from the MDR source were heat-sealed (PlateLoc, Agilent) and stored at −20° C. prior to use (<7 days from production). Tracking of liquid transfers via acoustic dispenser log files were used to update the LIMS system for all ARP plate maps.
Measurement of Pretreatment Control Cells and Sample Anti-Proliferative Effects on Treated Cells
On day 0 (pretreatment cells) or day 7 (treated cells), a cell proliferation assay was performed using an automated robotic assay platform (ACell, High-Res Biosolutions). Cell ARP's were removed from incubation, their plate lid discarded, and using a bulk reagent dispenser (Multidrop™ Combi, Thermo Scientific with a small-bore metal-tip cassette) 25 μL (1/2 volume) of Cell Titer-Glo® 2.0 Cell Viability Assay reagent (Promega) was added to wells of columns 1-23 (column 24 will be used as plate background or positive control). Cell ARP's were incubated at room temperature in an automation hotel position for a total of 1.0 minute while the next plate was delivered to the bulk reagent dispenser and then lid-free cell ARP's were returned to incubate at 37° C. for 2.5 hours. […]
Background: Cellular ATP, detected with luciferase, serves as a proxy for viable cell number.

Sequences of proteins named here, by UniProt entry; tags and fusion partners are left off. Residues count along the entry.
UniProt P37231, 234-505 limits assumed: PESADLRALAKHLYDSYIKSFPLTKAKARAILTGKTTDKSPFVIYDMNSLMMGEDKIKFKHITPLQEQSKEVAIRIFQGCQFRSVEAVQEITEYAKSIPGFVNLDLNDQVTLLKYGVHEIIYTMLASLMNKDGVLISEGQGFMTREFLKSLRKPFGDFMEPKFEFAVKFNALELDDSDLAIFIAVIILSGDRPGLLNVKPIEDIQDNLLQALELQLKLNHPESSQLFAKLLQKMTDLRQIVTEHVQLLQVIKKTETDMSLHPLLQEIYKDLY

The target of test [2] is His6-TEV-PPARγ-(234-505) (Homo sapiens, UniProt P37231). Put plainly: TR-FRET Assay to Measure Co-R Peptide Recruitment to PPARγ. The conditions noted are these: read-out: TR-FRET i-Ag, Co-R peptide (SMRT-ID2) recruitment, top final concentration 20 μM. (In general: In TR-FRET formats the signal depends on donor and acceptor labels being close together.)

As to `COc1cc(-c2cc(C(=O)N3CC(C)C(C(=O)N[C@H]4CC[C@@](O)(C(F)(F)F)CC4)CC3C)n[nH]2)c(F)cn1` (single isomer, unassigned) [Example 298-C], in test [1], the IC50 is 1150 nM. The AC50 in test [2] was determined as 306 nM.

Take `COc1cc(-c2cc(C(=O)N3CCC(C(=O)N[C@H]4CC[C@@](O)(C(F)(F)F)CC4)CC3C)n[nH]2)c(F)cn1` (single isomer, unassigned) [Example 401-A]: the IC50 in test [1] came to 90.9 nM. The AC50 in test [2] was found to be 25.7 nM.

For the molecule `COc1cc(-c2cc(C(=O)N3CC[C@H](C(=O)NCC4Cn5c(nnc5C(F)(F)F)CO4)CC34CC4)n[nH]2)c(F)cn1` (single isomer, unassigned) [Example 357-A], the IC50 in test [1] is greater than 10000 nM. Further, the AC50 in test [2] turned out to be 317 nM.

On to `COc1cc(-c2cc(C(=O)N3CC[C@H](C(=O)NC4CCOc5cccnc54)CC34CC4)n[nH]2)c(F)cn1` (single isomer, unassigned) [Example 366-B], for which the IC50 in test [1] is 32.3 nM. In addition, in test [2], the AC50 was 23.3 nM.

Take `CC(O)c1cc(-c2cc(C(=O)N3CCC(C(=O)NCc4ncc(F)cc4Cl)CC34CC4)n[nH]2)c(F)cn1` (single isomer, unassigned) [Example 478-B]: the IC50 in test [1] was determined as 675 nM. Moreover, the AC50 in test [2] stood at 56 nM.

With `COc1cc(-c2cc(C(=O)N3CC[C@H](C(=O)NC4CCOc5cccnc54)CC34CC4)n[nH]2)c(F)cn1` (single isomer, unassigned) [Example 366-A], the IC50 in test [1] came to 62.8 nM. For the same molecule, the AC50 in test [2] worked out at 45.3 nM.

Take `COc1cc(-c2cc(C(=O)N3CC[C@H](C(=O)NC4CCC(O)(C(F)(F)F)CC4O)CC34CC4)n[nH]2)c(F)cn1` (single isomer, unassigned) [Example 504-F]: the IC50 in test [1] is greater than 10000 nM. In addition, the AC50 in test [2] was determined as 6890 nM.

As for `COc1cc(-c2cc(C(=O)N3[C@@H]4CC[C@H]3C[C@H](C(=O)NC3CCC(C(F)(F)F)N(CC(C)(C)F)C3)C4)n[nH]2)c(F)cn1` (single isomer, unassigned) [Example 326-D], the IC50 in test [1] is 2890 nM. In test [2], the AC50 is 2570 nM.

Take `Cc1cc(-c2cc(C(=O)N3CCC(C(=O)NCc4ncccc4C4CC4)CC34CC4)[nH]n2)c(F)cn1` (single isomer, unassigned) [Example 506-A]: the IC50 in test [1] worked out at 3280 nM. In addition, the AC50 in test [2] was found to be 4120 nM.

In the case of `CCN1CC(NC(=O)[C@@H]2C[C@H]3CC[C@@H](C2)N3C(=O)c2cc(-c3cc(OC)ncc3F)[nH]n2)CCC1C(F)(F)F` (single isomer, unassigned) [Example 299-F], in test [1], the IC50 came to 590 nM. Also, the AC50 in test [2] was determined as 771 nM.

Take `COc1cc(-c2cc(C(=O)N3CC[C@H](C(=O)NCc4nccnc4C4CC4CO)CC34CC4)n[nH]2)c(F)cn1` (single isomer, unassigned) [Example 481-B]: in test [1], the IC50 was determined as 1170 nM. Further, the AC50 in test [2] stood at 45.7 nM.

As for `COc1cc(-c2cc(C(=O)N3CC[C@H](C(=O)NC4CCCn5c(C)nnc54)CC34CC4)n[nH]2)c(F)cn1` (single isomer, unassigned) [Example 492-A], the IC50 in test [1] was greater than 10000 nM. Moreover, the AC50 in test [2] was 1510 nM.

As for `COc1cc(-c2cc(C(=O)N3CC[C@H](C(=O)NC4CCC5(CC4)NCC5(F)F)CC34CC4)n[nH]2)c(F)cn1` (single isomer, unassigned) [Example 410-A], the IC50 in test [1] was found to be 134 nM. The AC50 in test [2] worked out at 25.1 nM.

Consider `COc1cc(-c2cc(C(=O)N3[C@@H]4CC[C@H]3C[C@H](C(=O)NC3CCC5(CCC(=O)N5)CC3)C4)n[nH]2)c(F)cn1` (single isomer, unassigned) [Example 295-A], for which, in test [1], the IC50 is greater than 4000 nM. Moreover, the AC50 in test [2] is 2090 nM.

As to `COc1cc(-c2cc(C(=O)N3CC[C@H](C(=O)NCC4CCS(=N)(=O)C4(C)C)CC34CC4)n[nH]2)c(F)cn1` (single isomer, unassigned) [Example 372-C], the IC50 in test [1] is greater than 10000 nM. Also, in test [2], the AC50 is 791 nM.

On to `COc1cc(-c2cc(C(=O)N3CCC(C(=O)NC4CC5COCC(C4)N5C)CC34CC4)n[nH]2)c(F)cn1` (single isomer, unassigned), for which the IC50 in test [1] turned out to be 3280 nM. Besides, in test [2], the AC50 is 621 nM.

As for `COc1cc(-c2cc(C(=O)N3CC[C@H](C(=O)NCC4CCS(=N)(=O)C4(C)C)CC34CC4)n[nH]2)c(F)cn1` (single isomer, unassigned) [Example 372-B], the IC50 in test [1] was greater than 10000 nM. Also, the AC50 in test [2] is 841 nM.

Regarding `COc1cc(-c2cc(C(=O)N3[C@@H]4CC[C@H]3C[C@H](C(=O)NC3CCC(C(F)(F)F)OC3)C4)n[nH]2)c(F)cn1` (single isomer, unassigned) [Example 280-B], the IC50 in test [1] stood at 15.3 nM. Also, in test [2], the AC50 came out at 6.5 nM.

`CCN1CC(NC(=O)[C@@H]2C[C@H]3CC[C@@H](C2)N3C(=O)c2cc(-c3cc(OC)ncc3F)[nH]n2)CCC1C(F)(F)F` (single isomer, unassigned) [Example 299-E]: the IC50 in test [1] was 884 nM. Moreover, the AC50 in test [2] amounted to 221 nM.

As to `COc1cc(-c2cc(C(=O)N3CC[C@H](C(=O)NC4CCN(c5ccnc(C)n5)C4)CC34CC4)n[nH]2)c(F)cn1` (single isomer, unassigned) [Example 431-A], the IC50 in test [1] came to 595 nM. Besides, the AC50 in test [2] was determined as 111 nM.

In the case of `COc1cc(-c2cc(C(=O)N3[C@@H]4CC[C@H]3C[C@H](C(=O)NC3CCC(O)(C(F)(F)F)CC3)C4)n[nH]2)c(Cl)cn1` (single isomer, unassigned) [Example 259-A], the IC50 in test [1] amounted to 1480 nM. Further, in test [2], the AC50 is 418 nM.

As to `COc1cc(-c2cc(C(=O)N3CCC(C(=O)NC4CCC5(CCC(=O)N5C)CC4)CC34CC4)n[nH]2)c(F)cn1` (single isomer, unassigned) [Example 327-D], the IC50 in test [1] is greater than 4000 nM. In test [2], the AC50 came out at 18800 nM.

In the case of `Cc1cc(-c2cc(C(=O)N3CCC(C(=O)NCc4ncc(F)cc4Cl)CC34CC4)n[nH]2)c(F)cn1` (single isomer, unassigned) [Example 385-A], the IC50 in test [1] is 929 nM. In addition, in test [2], the AC50 was found to be 466 nM.

With `COc1cc(-c2cc(C(=O)N3CCC(C(=O)N[C@H]4CC[C@@](O)(C(F)(F)F)CC4)C[C@@H]3C(F)(F)F)n[nH]2)c(F)cn1` (single isomer, unassigned) [Example 368-A], the IC50 in test [1] was determined as 3540 nM. The AC50 in test [2] turned out to be 1380 nM.

Take `CCN1C(=O)CCC12CCC(NC(=O)C1CCN(C(=O)c3cc(-c4cc(OC)ncc4F)[nH]n3)C3(CC3)C1)CC2` (single isomer, unassigned) [Example 328-D]: the IC50 in test [1] is greater than 10000 nM. Further, the AC50 in test [2] was 1630 nM.

For `COc1cc(-c2cc(C(=O)N3CCC(C(=O)NC4CCC5(CCC(=O)N5C)CC4)CC34CC4)n[nH]2)c(F)cn1` (single isomer, unassigned) [Example 327-A], in test [1], the IC50 was found to be 1850 nM. In addition, the AC50 in test [2] was 101 nM.

On to `COc1cc(-c2cc(C(=O)N3CC[C@H](C(=O)NC4CN(C)CCC4F)CC34CC4)n[nH]2)c(F)cn1` (single isomer, unassigned) [Example 422-A], for which, in test [1], the IC50 turned out to be 150 nM. For the same molecule, in test [2], the AC50 was 66.1 nM.

Take `COc1cc(-c2cc(C(=O)N3CCC(C(=O)N[C@@H]4CCN(CC(F)(F)F)C4)CC34CC4)n[nH]2)c(F)cn1` (single isomer, unassigned) [Example 331-A]: the IC50 in test [1] is 4.2 nM. Moreover, the AC50 in test [2] was found to be 5.7 nM.

(Values after patent publication US12606541B2, “PPARg modulators and methods of use” (Eisai R&D Management Co., Ltd., priority 2020, dated 2026).)
